Results: US9630929B2, “Benzenesulfonamide compounds and their use as therapeutic agents” (XENON PHARMACEUTICALS INC., priority 2011, dated 2017)
Where two headings read alike, the source gives them in different places.

Protein sequences, listed by entry. Tags and fused reporters are not part of them. Chains listed by the source or under a name are the forms on record and can include a tag or linker.
UniProt Q15858, other isoform, or with tags, fused parts or gaps: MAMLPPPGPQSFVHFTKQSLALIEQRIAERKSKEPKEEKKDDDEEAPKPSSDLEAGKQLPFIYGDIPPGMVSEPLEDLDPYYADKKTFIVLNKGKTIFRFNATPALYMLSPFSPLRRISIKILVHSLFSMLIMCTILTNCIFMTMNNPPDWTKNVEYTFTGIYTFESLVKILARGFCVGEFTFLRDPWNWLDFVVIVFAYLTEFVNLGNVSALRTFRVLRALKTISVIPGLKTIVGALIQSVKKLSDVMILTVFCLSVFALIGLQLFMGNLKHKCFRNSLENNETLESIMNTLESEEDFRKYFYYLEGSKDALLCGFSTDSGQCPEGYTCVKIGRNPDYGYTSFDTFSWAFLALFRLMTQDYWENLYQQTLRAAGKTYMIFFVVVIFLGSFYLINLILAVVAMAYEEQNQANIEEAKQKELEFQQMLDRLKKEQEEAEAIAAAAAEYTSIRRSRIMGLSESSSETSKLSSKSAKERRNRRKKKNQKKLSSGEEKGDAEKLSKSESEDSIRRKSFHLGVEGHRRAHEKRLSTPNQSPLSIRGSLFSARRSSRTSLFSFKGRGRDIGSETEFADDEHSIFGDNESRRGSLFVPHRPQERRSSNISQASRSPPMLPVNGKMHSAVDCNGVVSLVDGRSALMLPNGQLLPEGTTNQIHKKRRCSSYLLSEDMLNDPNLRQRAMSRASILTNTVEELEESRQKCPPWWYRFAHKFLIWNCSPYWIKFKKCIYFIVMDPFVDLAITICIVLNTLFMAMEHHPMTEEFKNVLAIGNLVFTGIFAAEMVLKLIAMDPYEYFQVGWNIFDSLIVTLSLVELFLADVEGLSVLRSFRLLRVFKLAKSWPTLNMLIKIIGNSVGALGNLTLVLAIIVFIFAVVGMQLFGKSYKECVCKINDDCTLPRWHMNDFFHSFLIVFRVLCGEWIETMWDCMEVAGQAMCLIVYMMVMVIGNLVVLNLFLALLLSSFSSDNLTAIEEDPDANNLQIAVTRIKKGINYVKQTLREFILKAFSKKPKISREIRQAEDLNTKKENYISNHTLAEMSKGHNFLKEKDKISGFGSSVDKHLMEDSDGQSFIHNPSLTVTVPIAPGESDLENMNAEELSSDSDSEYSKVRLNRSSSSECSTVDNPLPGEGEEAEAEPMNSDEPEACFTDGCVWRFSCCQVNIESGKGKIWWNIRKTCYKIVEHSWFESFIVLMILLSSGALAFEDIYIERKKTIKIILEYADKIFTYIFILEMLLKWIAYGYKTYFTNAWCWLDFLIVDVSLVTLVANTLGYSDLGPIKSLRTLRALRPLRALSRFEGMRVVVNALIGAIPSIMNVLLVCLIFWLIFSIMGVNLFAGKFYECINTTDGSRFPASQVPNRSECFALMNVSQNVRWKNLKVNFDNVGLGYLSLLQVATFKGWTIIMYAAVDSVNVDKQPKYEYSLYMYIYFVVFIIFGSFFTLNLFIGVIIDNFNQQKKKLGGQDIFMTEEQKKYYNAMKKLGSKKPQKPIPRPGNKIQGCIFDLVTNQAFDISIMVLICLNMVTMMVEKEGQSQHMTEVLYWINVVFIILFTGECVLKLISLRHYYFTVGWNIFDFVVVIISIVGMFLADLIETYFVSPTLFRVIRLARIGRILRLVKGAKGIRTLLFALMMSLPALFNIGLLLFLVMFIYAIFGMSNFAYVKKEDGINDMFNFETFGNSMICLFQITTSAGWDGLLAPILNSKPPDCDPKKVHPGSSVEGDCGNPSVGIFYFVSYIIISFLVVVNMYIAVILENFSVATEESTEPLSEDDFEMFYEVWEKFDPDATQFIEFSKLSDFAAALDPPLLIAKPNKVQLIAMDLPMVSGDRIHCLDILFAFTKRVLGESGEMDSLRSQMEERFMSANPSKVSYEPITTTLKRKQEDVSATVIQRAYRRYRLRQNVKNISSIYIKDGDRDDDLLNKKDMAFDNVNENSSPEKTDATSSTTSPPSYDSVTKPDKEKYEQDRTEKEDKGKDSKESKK
UniProt Q14524, whole entry: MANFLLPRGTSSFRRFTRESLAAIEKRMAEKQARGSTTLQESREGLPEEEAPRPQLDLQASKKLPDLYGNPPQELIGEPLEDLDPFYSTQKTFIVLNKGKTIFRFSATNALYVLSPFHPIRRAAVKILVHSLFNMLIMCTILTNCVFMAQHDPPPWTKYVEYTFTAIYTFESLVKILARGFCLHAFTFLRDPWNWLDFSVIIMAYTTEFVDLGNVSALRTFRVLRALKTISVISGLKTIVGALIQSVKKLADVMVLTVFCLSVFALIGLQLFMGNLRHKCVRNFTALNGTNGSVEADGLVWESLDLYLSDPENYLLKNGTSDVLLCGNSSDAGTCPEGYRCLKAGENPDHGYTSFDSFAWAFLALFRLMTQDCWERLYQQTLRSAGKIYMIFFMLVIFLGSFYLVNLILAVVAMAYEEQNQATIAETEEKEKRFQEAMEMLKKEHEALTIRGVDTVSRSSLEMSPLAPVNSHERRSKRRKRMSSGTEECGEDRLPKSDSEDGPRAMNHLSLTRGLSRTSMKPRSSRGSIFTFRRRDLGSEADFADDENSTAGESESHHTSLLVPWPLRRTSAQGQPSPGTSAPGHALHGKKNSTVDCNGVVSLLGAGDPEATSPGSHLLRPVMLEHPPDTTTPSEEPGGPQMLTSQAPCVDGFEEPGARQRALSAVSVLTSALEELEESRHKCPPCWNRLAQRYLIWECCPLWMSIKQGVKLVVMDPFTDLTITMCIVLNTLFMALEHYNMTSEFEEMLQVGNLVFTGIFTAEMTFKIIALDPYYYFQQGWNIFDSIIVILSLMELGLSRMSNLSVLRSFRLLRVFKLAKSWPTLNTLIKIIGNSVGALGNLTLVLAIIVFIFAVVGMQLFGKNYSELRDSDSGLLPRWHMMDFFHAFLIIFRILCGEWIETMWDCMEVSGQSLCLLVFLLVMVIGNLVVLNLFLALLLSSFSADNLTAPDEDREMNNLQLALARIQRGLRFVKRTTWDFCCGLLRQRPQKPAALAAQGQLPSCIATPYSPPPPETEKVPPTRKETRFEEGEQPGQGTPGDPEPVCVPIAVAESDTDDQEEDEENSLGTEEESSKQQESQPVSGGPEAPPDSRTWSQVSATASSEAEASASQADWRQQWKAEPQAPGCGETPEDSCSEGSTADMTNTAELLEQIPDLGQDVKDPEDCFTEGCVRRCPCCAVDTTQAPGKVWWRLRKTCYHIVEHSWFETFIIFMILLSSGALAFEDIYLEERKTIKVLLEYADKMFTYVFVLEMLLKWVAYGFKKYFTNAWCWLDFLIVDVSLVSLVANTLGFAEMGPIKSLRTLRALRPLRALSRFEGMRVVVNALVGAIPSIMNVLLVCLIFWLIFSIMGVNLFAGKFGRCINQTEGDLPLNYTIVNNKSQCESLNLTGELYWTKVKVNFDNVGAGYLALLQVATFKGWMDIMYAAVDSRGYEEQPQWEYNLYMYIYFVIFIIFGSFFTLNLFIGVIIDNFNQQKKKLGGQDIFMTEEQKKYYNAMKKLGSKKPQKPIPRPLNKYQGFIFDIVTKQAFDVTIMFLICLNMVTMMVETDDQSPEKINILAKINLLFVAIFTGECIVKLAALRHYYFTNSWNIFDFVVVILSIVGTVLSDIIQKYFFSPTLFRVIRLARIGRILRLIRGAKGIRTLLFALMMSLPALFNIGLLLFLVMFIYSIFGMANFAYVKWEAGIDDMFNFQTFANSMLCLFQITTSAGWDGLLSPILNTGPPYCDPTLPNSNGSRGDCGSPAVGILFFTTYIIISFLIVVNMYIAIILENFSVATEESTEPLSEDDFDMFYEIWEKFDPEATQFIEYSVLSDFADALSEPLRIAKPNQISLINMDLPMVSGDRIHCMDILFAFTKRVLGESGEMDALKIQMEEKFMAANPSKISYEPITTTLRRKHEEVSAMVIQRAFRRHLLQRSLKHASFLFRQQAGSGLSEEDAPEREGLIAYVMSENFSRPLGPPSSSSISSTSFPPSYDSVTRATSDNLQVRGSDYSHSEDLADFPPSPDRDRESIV

How the values were obtained:
NaV1.7 = NaV1.7 (Homo sapiens (Human), UniProt Q15858); experiment: Patch voltage clamp electrophysiology (EP), affinity for the inactivated state of Nav1.7; format: cell-based; conditions: HEK-293 cells expressing human Nav1.7 with β1 subunit
Method: (§1) The following patch voltage clamp electrophysiology studies were performed on representative compounds of the invention using human embryonic kidney cells (HEK), permanently transfected with an expression vector containing the full-length cDNA coding for the desired human sodium channel α-subunit, grown in culture media containing 10% FBS, 1% PSG, and 0.5 mg/mL G418 at 37° C. with 5% CO2. […] Nav1.7 and Nav1.5 cDNAs (NM_002977 and AC137587; SCN5A, respectively) were stably expressed in HEK-293 cells. The β1 subunit was coexpressed only in the Nav1.7 cell line.
(§2) Sodium currents were measured using the patch clamp technique in the whole-cell configuration using either a PatchXpress automated voltage clamp or manually using an Axopatch 200B (Axon Instruments) or Model 2400 (A-M systems) amplifier. The manual voltage clamp protocol was as follows: Borosilicate glass micropipettes were fire-polished to a tip diameter yielding a resistance of 2-4 Mohms in the working solutions. The pipette was filled with a solution comprised of: 5 mM NaCl, 10 mM CsCl, 120 mM CsF, 0.1 mM CaCl2, 2 mM MgCl2, 10 mM HEPES, 10 mM EGTA; and adjusted to pH 7.2 with CsOH. The external solution had the following composition: 140 mM NaCl, 5 mM KCl, 2 mM CaCl2, 1 mM MgCl2, 10 mM HEPES; and adjusted to pH 7.4 with NaOH. In some studies, the external sodium was reduced by equimolar replacement with choline. Osmolarity in the CsF internal and NaCl external solutions was adjusted to 300 mOsm/kg and 310 mOsm/kg with glucose, respectively. All recordings were performed at ambient temperature in a bath chamber with a volume of 150 μL. Control sodium currents were measured in 0.5% DMSO. Controls and representative compounds of the invention were applied to the recording chamber through a 4-pinch or 8-pinch valve bath perfusion system manufactured by ALA Scientific Instruments.
Series resistance compensation was applied (60-80%). […] All statistics in this study are given as mean±SD.
The membrane potential was maintained at a voltage where inactivation of the channel is complete (which was −60 mV for both Nav1.7 and Nav1.5). The voltage is then stepped back to a very negative (Vhold=−150 mV) voltage for 20 ms and then a test pulse is applied to quantify the compound block. […] The percent decrease in sodium current following wash-on of compound was taken as the percent block of sodium channels.
The Example numbers provided in Table 1 and Table 2 correspond to the Examples herein: […]

NaV1.5 = NaV1.5 (Homo sapiens (Human), UniProt Q14524); experiment: Patch voltage clamp electrophysiology (EP), affinity for the inactivated state of Nav1.5; format: cell-based
Method: Patch voltage clamp electrophysiology allows for the direct measurement and quantification of block of voltage-gated sodium channels (Nav's), and allows the determination of the time- and voltage-dependence of block which has been interpreted as differential binding to the resting, open, and inactivated states of the sodium channel (Hille, B., Journal of General Physiology (1977), 69: 497-515).
as §1, §2
Currents were recorded at 40 kHz sampling frequency, filtered at […], and stored using a Digidata-1322A analogue/digital interface with the pClamp software (Axon Instruments). Series resistance compensation was applied (60-80%). […]
The membrane potential was maintained at a voltage where inactivation of the channel is complete (which was −60 mV for both Nav1.7 and Nav1.5). The voltage is then stepped back to a very negative (Vhold=−150 mV) voltage for 20 ms and then a test pulse is applied to quantify the compound block. […]

[1] = HEK-293 cells expressing human Nav1.5, read-out: NaV1.5 IC50
[2] = HEK-293 cells expressing human Nav1.5, read-out: NaV1.5 IC50(μM) (class)

SMILES	IC50 (NaV1.7; read-out: NaV1.7 (IC50 class)) [nM]	IC50 (NaV1.7; read-out: NaV1.7 IC50) [nM]	IC50 (NaV1.5; [1]) [µM]	IC50 (NaV1.5; [2]) [µM]
O=S(=O)(Nc1ccncn1)c1cc(F)c(OC[C@@H]2CNCC[C@H]2c2ccc(Cl)cc2)cc1F (relative stereo) [Example 60, 4-((trans-4-(4-chlorophenyl)piperidin-3-yl)methoxy)-2,5-difluoro-N-(pyrimidin-4-yl)benzenesulfonamide]	< 100	33	–	–
O=S(=O)(Nc1ncns1)c1cc(F)c(OC[C@@H]2CNCC[C@H]2c2ccc(Cl)cc2)cc1F [Example 84, 4-(((3S,4R)-4-(4-chlorophenyl)piperidin-3-yl)methoxy)-2,5-difluoro-N-(1,2,4-thiadiazol-5-yl)benzenesulfonamide]	–	–	> 10	> 10
O=S(=O)(Nc1ncc(Cl)s1)c1cc(F)c(OC[C@@H]2CNCC[C@H]2c2ccc(Cl)cc2)cc1F (relative stereo) [Example 62, 4-((trans-4-(4-chlorophenyl)piperidin-3-yl)methoxy)-N-(5-chlorothiazol-2-yl)-2,5-difluorobenzenesulfonamide]	< 100	23	–	–
O=S(=O)(Nc1ncns1)c1cc(F)c(OC[C@@H]2CNCC[C@H]2c2ccc(F)c(F)c2)cc1F (relative stereo) [Example 48, 4-((trans-4-(3,4-difluorophenyl)piperidin-3-yl)methoxy)-2,5-difluoro-N-(1,2,4-thiadiazol-5-yl)benzenesulfonamide]	< 100	2.6	–	–
O=S(=O)(Nc1ncns1)c1cc(F)c(OC[C@H]2CNCC[C@H]2c2ccc(Cl)cc2)cc1F (relative stereo) [Example 66, 4-((cis-4-(4-chlorophenyl)piperidin-3-yl)methoxy)-2,5-difluoro-N-(1,2,4-thiadiazol-5-yl)benzenesulfonamide]	100 to 1000	–	–	–
O=S(=O)(Nc1ncns1)c1cc(F)c(OC[C@@H]2CNCC[C@H]2c2ccc(Cl)c(F)c2)cc1F (relative stereo) [Example 97, 4-((trans-4-(4-chloro-3-fluorophenyl)piperidin-3-yl)methoxy)-2,5-difluoro-N-(1,2,4-thiadiazol-5-yl)benzenesulfonamide]	< 100	0.9	–	–
O=S(=O)(Nc1ncns1)c1cc(F)c(OC[C@@H]2CNCC[C@H]2c2ccc(Cl)cc2)cc1F (relative stereo) [Example 44, 4-((trans-4-(4-chlorophenyl)piperidin-3-yl)methoxy)-2,5-difluoro-N-(1,2,4-thiadiazol-5-yl)benzenesulfonamide]	–	–	> 10	> 10
